The chains behind the UniProt entries cited, without tags or fusion partners. Residues count along the entry.
UniProt Q01650, whole entry: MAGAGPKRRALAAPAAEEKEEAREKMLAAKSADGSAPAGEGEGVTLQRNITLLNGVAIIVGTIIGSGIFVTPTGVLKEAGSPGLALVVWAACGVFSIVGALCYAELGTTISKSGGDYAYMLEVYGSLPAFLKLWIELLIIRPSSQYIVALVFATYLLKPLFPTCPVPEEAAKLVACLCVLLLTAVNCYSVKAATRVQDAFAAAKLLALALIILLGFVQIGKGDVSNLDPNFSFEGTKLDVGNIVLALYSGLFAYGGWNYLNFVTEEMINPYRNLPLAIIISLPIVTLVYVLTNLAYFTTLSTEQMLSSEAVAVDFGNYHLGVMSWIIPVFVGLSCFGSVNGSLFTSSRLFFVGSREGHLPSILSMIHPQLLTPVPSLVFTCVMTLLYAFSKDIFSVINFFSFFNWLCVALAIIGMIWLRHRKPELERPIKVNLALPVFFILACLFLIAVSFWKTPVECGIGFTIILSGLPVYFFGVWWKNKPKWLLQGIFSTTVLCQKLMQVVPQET
UniProt Q9UHI5, whole entry: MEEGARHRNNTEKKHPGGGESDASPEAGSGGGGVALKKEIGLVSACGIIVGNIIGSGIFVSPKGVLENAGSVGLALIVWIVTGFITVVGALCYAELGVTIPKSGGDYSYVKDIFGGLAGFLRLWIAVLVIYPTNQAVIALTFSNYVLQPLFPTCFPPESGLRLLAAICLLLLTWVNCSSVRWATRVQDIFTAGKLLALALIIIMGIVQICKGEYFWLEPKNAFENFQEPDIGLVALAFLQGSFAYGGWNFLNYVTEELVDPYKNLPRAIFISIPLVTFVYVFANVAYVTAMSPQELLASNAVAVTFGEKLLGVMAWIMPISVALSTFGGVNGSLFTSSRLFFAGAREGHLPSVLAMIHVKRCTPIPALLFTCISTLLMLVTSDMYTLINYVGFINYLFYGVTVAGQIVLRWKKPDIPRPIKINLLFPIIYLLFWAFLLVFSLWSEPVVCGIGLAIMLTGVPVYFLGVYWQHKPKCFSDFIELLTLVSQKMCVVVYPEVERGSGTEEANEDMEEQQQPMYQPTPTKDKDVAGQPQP
UniProt P08195, 102-630 partner: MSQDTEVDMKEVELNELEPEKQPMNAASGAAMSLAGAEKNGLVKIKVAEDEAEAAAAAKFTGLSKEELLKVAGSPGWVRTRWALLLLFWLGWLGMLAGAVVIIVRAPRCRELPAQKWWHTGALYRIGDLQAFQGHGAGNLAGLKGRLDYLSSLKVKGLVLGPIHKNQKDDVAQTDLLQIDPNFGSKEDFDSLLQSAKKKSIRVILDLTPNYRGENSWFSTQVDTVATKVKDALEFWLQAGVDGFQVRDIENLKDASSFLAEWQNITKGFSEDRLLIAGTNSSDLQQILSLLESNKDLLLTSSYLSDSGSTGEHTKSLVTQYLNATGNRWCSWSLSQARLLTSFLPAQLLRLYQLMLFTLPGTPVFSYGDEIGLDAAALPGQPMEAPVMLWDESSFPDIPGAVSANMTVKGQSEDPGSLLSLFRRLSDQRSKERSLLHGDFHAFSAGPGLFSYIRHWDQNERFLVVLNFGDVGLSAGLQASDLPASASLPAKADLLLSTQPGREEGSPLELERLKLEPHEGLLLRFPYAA

According to patent US20110150767A1, “ALPHA-SUBSTITUTED AND ALPHA-UNSUBSTITUTED AROMATIC AMINO ACID DERIVATIVES AND COMPOSITIONS THEREOF FOR USE TO TREAT, DIAGNOSE, OR MONITOR A MEDICAL CONDITION” (priority 2009, published 2011):

Columns and labels:
[1] = biological target: human L-type amino acid transporter 1 (LAT1; S2-hLAT1 cells) (Homo sapiens, UniProt Q01650); assay: Inhibition of L-[14C]leucine uptake in S2-LAT1 cells; details: read-out: IC50 (μM) S2-LAT1, inhibition of 1.0 μM L-[14C]leucine uptake, 1.0 min, 37° C., NI = no inhibition at 100 μM, tested form: HCl
Method: (§1) The establishment and characterization of mammalian cell lines expressing human L-type amino acid transporterss (i.e. S2-hLAT1 and S2-hLAT2) has been previously described (Morimoto et al., Journal of Pharmacological Sciences, 2008, 108, 505-516).
(§2) General test procedures are as follows: All test compounds were dissolved in dimethyl sulfoxide (DMSO) to prepare stock solutions at the concentrations of 0.05, 0.5, 5.0 and 50 mM; next, these stock solutions were used and diluted with uptake solution to make final test concentrations of 0.10, 1.00, 10.0 and 100 μM, respectively. Therefore, all compounds used for uptake experiment were in uptake solution containing 0.2% DMSO; experiments are performed in triplicate for each concentration. For control uptake, only DMSO was added into the uptake solution to a final concentration of 0.2%.
(§3) S2-LAT1 and S2-LAT2 cells were seeded (1.3×10^5 cells/well) into 24-well plates and cultured at 33° C. (5% CO2) for 2-3 days until confluent (90%-100% confluence). Uptake experiments were performed at 37° C. The culture medium was removed and washed 3 times with uptake solution (37° C.; Hank's Na^+ free buffer consisting of 125 mM choline chloride, 4.8 mM KCl, 1.3 mM CaCl2, 1.2 mM MgCl2, 25.0 mM HEPES, and 5.0 mM Tris, pH 7.4, supplemented with D-glucose (5.6 mM). The cells were equilibrated in uptake solution (300 μL; 37° C.) for 12 min. The equilibrated solution was removed and uptake solution containing radio-labeled compound (1.0 μM L-[^14C] Leucine) with or without test compound (300 μL) was added to the cells (1.0 min). The test solution was removed and the cells washed 3 times with ice-cold uptake solution. The cells are then solubilized with 0.1N NaOH (0.5 mL) and transferred to scintillation vials. Liquid scintillation fluid (3.0 mL; aquasol-2) was added, mixed and substrate accumulation was measured by counting radioactivity via liquid scintillation counting (LSC; LSC6100, Aloka, Tokyo). The uptake value and % of inhibition were calculated to afford IC50 values.

[2] = biological target: human L-type amino acid transporter 2 (LAT2; S2-hLAT2 cells) (Homo sapiens, UniProt Q9UHI5); assay: Inhibition of L-[14C]leucine uptake in S2-LAT2 cells; details: read-out: IC50 (μM) S2-LAT2, inhibition of 1.0 μM L-[14C]leucine uptake, 1.0 min, 37° C., NI = no inhibition at 100 μM, tested form: HCl
Method: as §1, §2, §3

SMILES | IC50 [1] | IC50 [2]
COc1ccc(COc2c(I)cc(C[C@H](N)C(=O)O)cc2I)cc1[N+](=O)[O-] | 64.5 µM | > 100 µM
N[C@@H](Cc1cc(I)c(OCCCc2ccccn2)c(I)c1)C(=O)O | > 100 µM | > 100 µM
N[C@@H](Cc1cc(I)c(OCc2ccccc2F)c(I)c1)C(=O)O | 29.8 µM | 7.4 µM
N[C@@H](Cc1cc(I)c(OCCc2ccccc2F)c(I)c1)C(=O)O | 54.5 µM | > 100 µM
N[C@@H](Cc1cc(Br)c(OCc2ccccn2)c(Br)c1)C(=O)O | > 100 µM | > 100 µM
N[C@@H](Cc1cc(Br)c(OCc2ccc(C(F)(F)F)cc2)c(Br)c1)C(=O)O | > 100 µM | > 100 µM
COc1cc(OC)c(OC)cc1COc1c(Br)cc(C[C@H](N)C(=O)O)cc1Br | 31.1 µM | > 100 µM
N[C@@H](Cc1cc(Cl)c(OCc2cccnc2)c(Cl)c1)C(=O)O | 106 µM | > 100 µM
N[C@@H](Cc1cc(I)c(OCc2cccc(C(F)(F)F)c2)c(I)c1)C(=O)O | 40.5 µM | > 100 µM
N[C@@H](Cc1cc(Br)c(OCc2cccc(F)c2)c(Br)c1)C(=O)O | 71.5 µM | 49.3 µM
N[C@@H](Cc1cc(I)c(OCCc2cccc(F)c2)c(I)c1)C(=O)O | 67 µM | > 100 µM
N[C@@H](Cc1cc(Br)c(OCc2cccc(F)c2F)c(Br)c1)C(=O)O | 88 µM | 42.2 µM
N[C@@H](Cc1cc(Br)c(OCc2cc(C(F)(F)F)ccc2C(F)(F)F)c(Br)c1)C(=O)O | > 100 µM | > 100 µM
N[C@@H](Cc1cc(Cl)c(OCc2ccccn2)c(Cl)c1)C(=O)O | 93.3 µM | > 100 µM
N[C@@H](Cc1cc(I)c(OCc2cc(C(F)(F)F)cc(C(F)(F)F)c2)c(I)c1)C(=O)O | > 100 µM | > 100 µM
N[C@@H](Cc1cc(Br)c(OCc2ccc(F)cc2F)c(Br)c1)C(=O)O | 38.5 µM | 43.8 µM
N[C@@H](Cc1cc(I)c(OCc2cccnc2)c(I)c1)C(=O)O | 86 µM | > 100 µM
N[C@@H](Cc1cc(I)c(OCc2ccncc2)c(I)c1)C(=O)O | 57 µM | > 100 µM

SMILES | IC50 [1] | IC50 [2]
N[C@@H](Cc1cc(Br)c(OCc2cc(F)c(F)c(F)c2)c(Br)c1)C(=O)O | 59.5 µM | > 100 µM
N[C@@H](Cc1cc(I)c(OCCc2cccc(C(F)(F)F)c2)c(I)c1)C(=O)O | > 100 µM | > 100 µM
N[C@@H](Cc1cc(I)c(OCCc2ccccn2)c(I)c1)C(=O)O | 27.3 µM | > 100 µM
N[C@@H](Cc1cc(Br)c(OCCc2ccc(F)cc2)c(Br)c1)C(=O)O | 42.3 µM | > 100 µM
N[C@@H](Cc1cc(I)c(OCc2cccc(F)c2)c(I)c1)C(=O)O | 42.5 µM | 12.9 µM
N[C@@H](Cc1cc(I)c(OCCc2ccccc2C(F)(F)F)c(I)c1)C(=O)O | > 100 µM | > 100 µM
N[C@@H](Cc1cc(Br)c(OCc2ccc(F)cc2)c(Br)c1)C(=O)O | 33.4 µM | 42.5 µM
N[C@@H](Cc1cc(Cl)c(OCCc2ccccc2F)c(Cl)c1)C(=O)O | 35.1 µM | 56 µM
N[C@@H](Cc1cc(Br)c(OCCc2ccccc2F)c(Br)c1)C(=O)O | 37.1 µM | 91.9 µM
COc1cc(OC)c(OC)cc1COc1c(I)cc(C[C@H](N)C(=O)O)cc1I | 70.6 µM | > 100 µM
COc1cccc(COc2c(I)cc(C[C@H](N)C(=O)O)cc2I)c1 | > 100 µM | > 100 µM
N[C@@H](Cc1cc(Br)c(OCc2ccccc2F)c(Br)c1)C(=O)O | > 100 µM | 69.1 µM
COc1cccc(COc2c(Br)cc(C[C@H](N)C(=O)O)cc2Br)c1OC | 27.5 µM | > 100 µM
N[C@@H](Cc1cc(Br)c(OCc2cccc(C(F)(F)F)c2)c(Br)c1)C(=O)O | > 100 µM | > 100 µM
N[C@@H](Cc1cc(Br)c(OCc2ccc([N+](=O)[O-])cc2)c(Br)c1)C(=O)O | 29.2 µM | 5.5 µM
N[C@@H](Cc1cc(Cl)c(OCCc2ccc(F)cc2)c(Cl)c1)C(=O)O | 34.5 µM | > 100 µM
Cc1c(C)c(C)c(COc2c(I)cc(C[C@H](N)C(=O)O)cc2I)c(C)c1C | > 100 µM | > 100 µM
N[C@@H](Cc1cc(Cl)c(OCCc2cccc(F)c2)c(Cl)c1)C(=O)O | 37.4 µM | 61.3 µM

Continued by falling IC50 [1], values first:

IC50 [1] | IC50 [2] | SMILES
27 µM | 13.9 µM | N[C@@H](Cc1cc(I)c(OCc2cccc(F)c2F)c(I)c1)C(=O)O
25.3 µM | > 100 µM | COc1ccc(CCOc2c(Cl)cc(C[C@H](N)C(=O)O)cc2Cl)cc1
23.3 µM | 130 µM | COc1ccc(COc2c(Br)cc(C[C@H](N)C(=O)O)cc2Br)cc1OC
22.2 µM | > 100 µM | N[C@@H](Cc1cc(Br)c(OCCc2cccc(F)c2)c(Br)c1)C(=O)O
19.8 µM | > 100 µM | N[C@@H](Cc1cc(Cl)c(OCCc2ccc([N+](=O)[O-])cc2)c(Cl)c1)C(=O)O
19.4 µM | > 100 µM | N[C@@H](Cc1cc(Cl)c(OCc2ccccc2C(F)(F)F)c(Cl)c1)C(=O)O
19.2 µM | 95.6 µM | COc1ccc(COc2c(I)cc(C[C@H](N)C(=O)O)cc2I)cc1OC
18.6 µM | > 100 µM | COc1ccc(COc2c(I)cc(C[C@H](N)C(=O)O)cc2I)cc1
17.8 µM | > 100 µM | COc1ccccc1COc1c(I)cc(C[C@H](N)C(=O)O)cc1I
16.8 µM | 59.7 µM | COc1ccc(COc2c(Cl)cc(C[C@H](N)C(=O)O)cc2Cl)cc1
15.5 µM | 40.3 µM | N[C@@H](Cc1cc(Br)c(OCc2ccc(Cl)cc2)c(Br)c1)C(=O)O
15.4 µM | > 100 µM | COc1ccc(COc2c(I)cc(C[C@H](N)C(=O)O)cc2I)c(OC)n1
14 µM | 5.5 µM | N[C@@H](Cc1cc(I)c(OCc2ccc(F)cc2F)c(I)c1)C(=O)O
13.6 µM | 28.3 µM | COc1cccc(COc2c(Cl)cc(C[C@H](N)C(=O)O)cc2Cl)c1
13.2 µM | > 100 µM | N[C@@H](Cc1cc(Cl)c(OCCc2cccc(C(F)(F)F)c2)c(Cl)c1)C(=O)O
10.1 µM | 14.4 µM | N[C@@H](Cc1cc(Cl)c(OCc2ccc(C(F)(F)F)cc2)c(Cl)c1)C(=O)O
10 µM | 11.1 µM | N[C@@H](Cc1cc(I)c(OCc2ccc(F)cc2)c(I)c1)C(=O)O

IC50 [1] | IC50 [2] | SMILES
8.3 µM | > 100 µM | N[C@@H](Cc1cc(Br)c(OCCc2ccc(OC(F)(F)F)cc2)c(Br)c1)C(=O)O
8 µM | > 100 µM | N[C@@H](Cc1cc(I)c(OCc2ccccn2)c(I)c1)C(=O)O
7.7 µM | > 100 µM | N[C@@H](Cc1cc(Cl)c(OCCc2ccc(OC(F)(F)F)cc2)c(Cl)c1)C(=O)O
7.4 µM | > 100 µM | N[C@@H](Cc1cc(I)c(OCCc2ccc(C(F)(F)F)cc2)c(I)c1)C(=O)O
7.1 µM | > 100 µM | COc1cccc(CCOc2c(I)cc(C[C@H](N)C(=O)O)cc2I)c1
6.2 µM | > 100 µM | CCOc1cc(COc2c(I)cc(C[C@H](N)C(=O)O)cc2I)cc(OCC)c1OCC
5.8 µM | 93.6 µM | COc1ccccc1COc1c(Cl)cc(C[C@H](N)C(=O)O)cc1Cl
5.2 µM | 87.5 µM | COc1ccc(COc2c(Br)cc(C[C@H](N)C(=O)O)cc2Br)c(OC)n1
4.8 µM | > 100 µM | COc1ccc(CCOc2c(I)cc(C[C@H](N)C(=O)O)cc2I)cc1OC
4.4 µM | > 100 µM | COc1ccc(CCOc2c(I)cc(C[C@H](N)C(=O)O)cc2I)cc1
3.9 µM | > 100 µM | COc1ccc(CCOc2c(Br)cc(C[C@H](N)C(=O)O)cc2Br)cc1OC
3.4 µM | > 100 µM | COc1ccccc1CCOc1c(Cl)cc(C[C@H](N)C(=O)O)cc1Cl
2.9 µM | 9.2 µM | N[C@@H](Cc1cc(Cl)c(OCc2cccc(C(F)(F)F)c2)c(Cl)c1)C(=O)O
2.6 µM | 35.7 µM | CCOc1ccc(COc2c(Br)cc(C[C@H](N)C(=O)O)cc2Br)cc1OCC
2.1 µM | > 100 µM | CCOc1cc(COc2c(Br)cc(C[C@H](N)C(=O)O)cc2Br)cc(OCC)c1OCC
1.4 µM | 28.7 µM | CCOc1ccc(COc2c(Br)cc(C[C@H](N)C(=O)O)cc2Br)c(OCC)c1
